According to patent US20210008075A1, “PEDIATRIC DOSING FOR TREATMENT OF CANCER WITH AN EZH2 INHIBITOR” (Epizyme, Inc., priority 2015, published 2021):
Entries after “also recorded” stand apart in the source; their conditions may differ.

Key:
Medulloblastoma cells = assay: Medulloblastoma cell growth, total cells per milliliter counted; type: cell-based; details: versus GSK-126 and UNC 1999
EZH2 = type: biochemical

Compound: CCN(c1cc(-c2ccc(CN3CCOCC3)cc2)cc(C(=O)NCc2c(C)cc(C)[nH]c2=O)c1C)C1CCOCC1 [tazemetostat]
- effect on medulloblastoma cell growth compared with other small molecule EZH2 inhibitors (Medulloblastoma cells): superior ability to decrease medulloblastoma cell growth; also recorded: greatest effect on medulloblastoma cell growth
- targeting of WT and mutant EZH2 (EZH2): potent in targeting both WT and mutant EZH2
